Laboratory results as given in patent US7198811B2, “Compositions for the preservation of fruits and vegetables” (University of Guelph, priority 2002, dated 2007).

Test system: Vista Cherries
Experiment: Postharvest dips of compositions or individual components on Vista cherries
Assay type: in vivo
Settings: dipped 2.5 min, concentration as printed per treatment; stored 4° C. in air

| SMILES | Soluble Solids (%) 4 weeks [%] | Soluble Solids (%) 2 weeks [%] |
| --- | --- | --- |
| c1ccc(CNc2ncnc3nc[nH]c23)cc1 [BA, benzyladenine] | 16.4 | – |
| CC(C)=CCC/C(C)=C/CO [Geraniol] | – | 16.8 |
| CC(=O)OC/C=C(\C)CCC=C(C)C [Geranyl Acetate] | 14.6 | – |
